Two compounds from patent US20240189276A1, “COMPOSITIONS COMPRISING LACTATE DEHYDROGENASE-A INHIBITORS AND METHODS OF PRODUCTION AND USE THEREOF” (Southwestern Oklahoma State University, priority 2022, published 2024) can be followed below.

A value given as a limit tells only on which side of the number the result lay.

The test system of one series is HPNE cell lines. The experiment in a line: Cytotoxicity assay in hTERT immortalized normal pancreatic cells. The class given is cell-based, human. To be noted: read-out: Cytotoxicity IC50 ± SD, HPNE Normal, 48 hr.
The subject of series [1] is FC1199 pancreatic cancer cells. Description: Cytotoxicity (viability/proliferation/necrosis) assay, FC1199. The class given is cell-based, mouse. To be noted: read-out: Cytotoxicity IC50 ± SD, FC-1199; FC-1199, 48 hr.

In the case of `O=C(CC(C(=O)O)c1ccc(C(F)(F)F)cc1)Nc1ccc(C(=O)N2CCOCC2)cc1` (stereo not shown), the IC50 (in the series with HPNE cell lines; in series [1]) was above 50 µM throughout.
`COC(=O)C(CC(=O)Nc1ccc(C(=O)N2CCOCC2)cc1)c1ccc(C(F)(F)F)cc1` (stereo not shown): the IC50 (with HPNE cell lines; in series [1]) was above 50 µM throughout.
